Source: patent US10159249B2

Tested on: maize transgenic T0 events expressing Axmi309H-Evo41
Type: in vivo
Conditions: 100 g AI/ha
Protocol: Regenerated T0 events from tissue culture were transplanted into two inch square pots with synthetic soil (Fafard® Mix) and controlled-released fertilizer (Haifa Multicote™; polymer-coated controlled-release fertilizer, NPK Pro 18-6-12+Micronutrients) and cultivated in the greenhouse (GH) under supplementary high pressure sodium light for 12 days at a maximum of 30° C. during the day and a minimum of 22° C. at night. Fully recovered plants were transferred into five inch square pots filled with synthetic soil and control released fertilizer under the same environmental conditions. […] All herbicide treatments were conducted in a DeVries Tracker Sprayer system with standard application protocols, which are well known in the art. As a spray control T0 events have been sprayed with the adjunvant mixture lacking the herbicide. […]

Compound: CSc1c(C(F)(F)F)ccc(C(=O)Nc2nnnn2C)c1Cl
- share of tested events with acceptable resistance (15% or less bleached leaf area): 60%
